{"source": "patent US20150190461A1", "about": "“DOSING INSTRUCTIONS FOR ENDOTOXIN-BINDING LIPOPEPTIDES” (priority 2012, published 2015)", "conditions": "determined from the half-life for PMB of 13.6; calculation example"}
{"substance": "polymyxin B [PMB]", "values": [{"measurement": "PMB clearance of the patient", "result": 36, "unit": "mL/min"}]}
